Results: patent publication US20140356349A1, “BIOMARKERS OF RESISTANCE TO HER2 INHIBITORS” (Seoul National University R&DB Foundation, priority 2013, published 2014)

Assays:
[1] = system: BT474 HR clones (HR-4, HR-8, HR-14, HR-15, HR-16, HR-17, HR-22); assay: MTT assay using Herceptin-resistant (HR) clones; type: cell-based, human; conditions: 20 μg/ml Herceptin, 48 hours, control PBS; FIG. 2
Protocol: A MTT assay was performed using HR clones (HR-4, HR-8, HR-14, HR-15, HR-16, HR-17, HR-22) established in Example 1.
5×10^3 cells were seeded into a 96-well plate. After 24 hours, cells were treated with 20 μg/ml of Herceptin. After 48 hours, cells were allowed to react with a MTT solution for 3 hours. Formed formazan crystals were dissolved with DMSO (Sigma) and O.D value was measured by using ELISA. For a control, cells treated with the same amount of PBS solution were used.

[2] = system: BT474 HR clone cells (HR-8); assay: 3D-growth assay in 0.4% agarose cell layer; type: cell-based, human; conditions: HR-8, 20 μg/ml Herceptin re-treated every 72 hours, observed day 1-29, unlike BT474 wild type; FIG. 3 upper panel
Source text: Effects of herceptin on proliferation of HR clones harvested from BALB/C nude immunodeficient mice (CAnN.Cg-Foxn1nu/CrljOri, Orient) transplanted with HER2 protein-positive human breast cancer cell BT474 in Example 1 were examined by performing a 3D-growth assay.
A bottom layer of 0.8% low melting point agarose(Sigma) was made into a 6-well plate, and when the bottom layer became solid, 3×10^4 cells of BT474 wild type (wt) or HR clone cells (HR-8) were admixed to 0.4% agarose to make a cell suspension layer (0.4% agarose cell layer). 20 μg/ml of Herceptin was treated to the cell suspension layer and cultured. The same concentration of Herceptin was additionally treated every 72 hours. The time of cell seeding into the 6-well plate was set to day 0, and on 1st, 8th, 15th, 22nd, and 29th day, cells were observed by using an optical microscope at a magnification of 100×.

[3] = system: BT474 HR clone cells (HR-8); assay: 3D culture in media:Matrigel 3:1; type: cell-based, human; conditions: HR-8 vs BT474 wild type, 20 μg/ml Herceptin re-treated every 72 hours; FIG. 3 lower panel
Protocol: In addition, 5×10^5 cells of BT474 wild type or HR clone cells (HR-8) were cultured in a 6-well plate in a three-dimensional environment made up of media:Matrigel (BD Biosciences)=3:1 and resistance of HR clone to Herceptin was examined. 20 μg/ml of Herceptin was treated to the 6-well plate and cultured.

[4] = system: metastatic breast cancer having tumors that overexpress HER2; conditions: patients with metastatic breast cancer overexpressing HER2; cited from earlier work

trastuzumab [Herceptin]
resistance of HR clones to Herceptin (MTT, O.D.) [1]: HR clones showed resistance to Herceptin
changes in cell viability caused by Herceptin treatment [2]: changes in cell viability caused by Herceptin treatment were not observed
resistance of HR clone to Herceptin in Matrigel 3D culture [3]: BT474 herceptin resistance cells were found out
overall response rate [4]: below 35%
